The source of these data is publication PMC4601051, “Discovery of Indoline-2-carboxamide Derivatives as a New Class of Brain-Penetrant Inhibitors of Trypanosoma brucei” (Journal of Medicinal Chemistry, 2015).

For the test, the system named is MRC-5 cells. As to conditions: Table 7.

As for `CNC(=O)[C@H]1Cc2ccccc2N1C(=O)COc1ccc(Cl)cc1` [Compound 27, (R)-1-(2-(4-Chlorophenoxy)acetyl)-N-methylindoline-2-carboxamide], the “selectivity vs MRC-5” value was >1800. `CNC(=O)C1Cc2ccccc2N1C(=O)COc1ccc(F)cc1` (centres unmarked) [Compound 35, 1-(2-(4-fluorophenoxy)acetyl)-N-methylindoline-2-carboxamide]: the “selectivity vs MRC-5” value is listed as >2700.

For the compound `CNC(=O)[C@H]1Cc2ccccc2N1C(=O)Cc1ccc(F)cc1` [Compound 47, (R)-1-(2-(4-Fluorophenyl)acetyl)-N-methylindoline-2-carboxamide], the “selectivity vs MRC-5” value is reported as >860. With `CNC(=O)C1Cc2cc(F)ccc2N1C(=O)COc1ccc(F)cc1` (centres unmarked) [Compound 55, 5-fluoro-1-(2-(4-fluorophenoxy)acetyl)-N-methylindoline-2-carboxamide], the “selectivity vs MRC-5” value is on record as >720. With `CNC(=O)C1Cc2ccccc2N1C(=O)COc1ccc(Cl)cc1` (centres unmarked) [Compound 1, 1-(2-(4-chlorophenoxy)acetyl)-N-methylindoline-2-carboxamide], the “selectivity vs MRC-5” value is >1800.
